## Ab-91 heavy chain CDR variants: yeast mating affinities

Antigen: PDVDLGDISGINAS, a 14-residue peptide of the SARS-CoV-2 spike HR2 region.

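The starting antibody came from a phage panning campaign against this peptide. In library AAYL51, one, two or three CDR residues were substituted; doubles and triples were drawn at random. Affinity was read by AlphaSeq, a pooled yeast mating assay with surface-displayed partners. The frequency of each diploid, read from paired DNA barcodes, reflects how well the two displayed proteins bind. Each replicate has its own calibration line, from reference interactions of the BCL2 family. There are three technical replicates.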

Each scFv is VL, a 15-residue (Gly4Ser)3 linker, VH, as in the parent Ab-91, and differs from it in the CDRs of the heavy chain only.
VL: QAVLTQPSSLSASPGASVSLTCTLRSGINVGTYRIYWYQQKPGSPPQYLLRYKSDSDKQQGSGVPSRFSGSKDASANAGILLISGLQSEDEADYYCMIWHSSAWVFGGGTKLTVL
VH: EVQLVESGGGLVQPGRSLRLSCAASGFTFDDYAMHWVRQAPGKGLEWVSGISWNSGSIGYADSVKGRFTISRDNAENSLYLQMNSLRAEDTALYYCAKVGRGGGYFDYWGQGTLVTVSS

Sequences are complete VH domains.
Values are apparent Kd, the geometric mean of the replicates that gave a signal; lower means stronger binding.
An entry "not detected" has no value in the source: the pair was not observed among the diploids in any replicate. This suggests poor binding but is not conclusive.

VH | Kd | detected | control signals
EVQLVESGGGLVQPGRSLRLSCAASGFTFDDYAMHWVRQAPGKGLEWVSGISWNSGSISYADSRKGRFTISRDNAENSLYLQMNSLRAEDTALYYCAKKGRGGGYFDYWGQGTLVTVSS | 57 µM | 1 of 3 | 1 of 9
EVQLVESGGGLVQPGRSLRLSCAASGFTFDDYAMHWVRQAPGKGLEWVSGISWSSGNIGYADSVKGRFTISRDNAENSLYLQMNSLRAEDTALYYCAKVGRGGGYFDYWGQGTLVTVSS | not detected | 0 of 3 | 0 of 9
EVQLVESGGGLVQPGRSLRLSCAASGITFDDYAMHWVRQAPGKGLEWVSGVSWNSGSIGYADSVKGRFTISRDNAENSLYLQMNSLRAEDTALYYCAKVGRGGGYFDYWGQGTLVTVSS | not detected | 0 of 3 | 0 of 9
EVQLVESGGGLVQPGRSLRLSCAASGFTFGDYAMHWVRQAPGKGLEWVSGISWNSGSISYADSVKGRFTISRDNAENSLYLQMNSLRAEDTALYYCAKVGRGGGYFDYWGQGTLVTVSS | 490 µM | 3 of 3 | 5 of 9
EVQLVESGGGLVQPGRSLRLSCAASGFTFMDYAMHWVRQAPGKGLEWVSGITWNSGSIGYADSVKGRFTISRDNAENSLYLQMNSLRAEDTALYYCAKVGQGGGYFDYWGQGTLVTVSS | 33 µM | 1 of 3 | 1 of 9
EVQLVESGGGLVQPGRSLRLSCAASGFTFCSYAMHWVRQAPGKGLEWVSGISWNSGSIGYADSVKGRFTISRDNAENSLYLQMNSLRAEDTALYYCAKVGRGGKYFDYWGQGTLVTVSS | 1.3 mM | 2 of 3 | 7 of 9
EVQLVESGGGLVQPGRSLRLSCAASGFTFAQYAMHWVRQAPGKGLEWVSGISWNSGSIGYADSVKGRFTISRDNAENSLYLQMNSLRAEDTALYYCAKVIRGGGYFDYWGQGTLVTVSS | 110 µM | 1 of 3 | 1 of 9
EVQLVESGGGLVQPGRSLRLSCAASGFTEDDYAMHWVRQAPGKGLEWVSGISWNSGSIGYADSVKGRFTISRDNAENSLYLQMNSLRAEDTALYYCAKFGRRGGYFDYWGQGTLVTVSS | 59 µM | 2 of 3 | 0 of 9
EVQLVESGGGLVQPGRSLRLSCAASGFTFDDYMDHWVRQAPGKGLEWVSGISWNSGSIGYADSVKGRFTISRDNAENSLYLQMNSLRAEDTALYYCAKVGRGKGYFDYWGQGTLVTVSS | not detected | 0 of 3 | 0 of 9
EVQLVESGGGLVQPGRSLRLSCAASGFTFDDCAMHWVRQAPGKGLEWVSGISWNSGSIGYADSVKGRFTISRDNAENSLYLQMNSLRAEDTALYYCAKMGRGGSYFDYWGQGTLVTVSS | 46 µM | 2 of 3 | 2 of 9
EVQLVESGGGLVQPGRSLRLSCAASGLTFDDYAGHWVRQAPGKGLEWVSGISWNSGSIPYADSVKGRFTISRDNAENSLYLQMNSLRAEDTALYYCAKVGRGGGYFDYWGQGTLVTVSS | 4.8 µM | 1 of 3 | 0 of 9
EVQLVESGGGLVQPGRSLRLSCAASGKTFDDYAMHWVRQAPGKGLEWVSGISWNSGSWGYADSVKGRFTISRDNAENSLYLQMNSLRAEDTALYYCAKVGRGGGVFDYWGQGTLVTVSS | 12 µM | 1 of 3 | 0 of 9
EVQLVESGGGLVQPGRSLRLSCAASGFTFDDYAMHWVRQAPGKGLEWVSGISANSTSIGYADSVKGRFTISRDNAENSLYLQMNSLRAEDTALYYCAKVGRGGGYFDMWGQGTLVTVSS | 20 µM | 1 of 3 | 5 of 9
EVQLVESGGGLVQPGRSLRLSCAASGFWFDDYAMHWVRQAPGKGLEWVSGISWNSGSIGYATSWKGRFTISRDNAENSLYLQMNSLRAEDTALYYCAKVGRGGGYFDYWGQGTLVTVSS | 10 µM | 1 of 3 | 3 of 9
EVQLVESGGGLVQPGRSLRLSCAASGFTFDDYAMHWVRQAPGKGLEWVSGASWNSGSIGYADSVLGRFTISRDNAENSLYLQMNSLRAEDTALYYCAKVGRGGGYFDVWGQGTLVTVSS | 170 nM | 3 of 3 | 0 of 9
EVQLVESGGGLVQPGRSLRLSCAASGFTFDDYAKHWVRQAPGKGLEWVSGISWNSGSCGYADSVKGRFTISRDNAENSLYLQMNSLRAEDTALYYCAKVGRGRGYFDYWGQGTLVTVSS | 16 µM | 2 of 3 | 3 of 9
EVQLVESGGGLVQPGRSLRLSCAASGFTGDDYAMHWVRQAPGKGLEWVSGISWNSGSSGYADSVKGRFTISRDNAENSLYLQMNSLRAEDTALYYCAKVGRGIGYFDYWGQGTLVTVSS | not detected | 0 of 3 | 0 of 9
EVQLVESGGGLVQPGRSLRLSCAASGITFDDYAMHWVRQAPGKGLEWVSGISWNSGSIGYVDSVKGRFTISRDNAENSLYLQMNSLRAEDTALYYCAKVGRGGGWFDYWGQGTLVTVSS | not detected | 0 of 3 | 0 of 9
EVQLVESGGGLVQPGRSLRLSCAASGFTFDIYAMHWVRQAPGKGLEWVSPISWNSGSSGYADSVKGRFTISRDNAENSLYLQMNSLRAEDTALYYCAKVGRGGGYFDYWGQGTLVTVSS | 10 µM | 1 of 3 | 0 of 9
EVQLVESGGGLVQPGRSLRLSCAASGFTFDDYPMHWVRQAPGKGLEWVSGIYWNSGSIGYADSVKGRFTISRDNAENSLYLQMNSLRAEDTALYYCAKVGYGGGYFDYWGQGTLVTVSS | not detected | 0 of 3 | 0 of 9
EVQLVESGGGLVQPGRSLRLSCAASGFTFDDYAMHWVRQAPGKGLEWVSGISWDSGSICYATSVKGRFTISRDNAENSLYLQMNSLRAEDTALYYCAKVGRGGGYFDYWGQGTLVTVSS | not detected | 0 of 3 | 1 of 9
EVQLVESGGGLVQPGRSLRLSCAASGFTFDVYAMHWVRQAPGKGLEWVSGISWNSRSIGYANSVKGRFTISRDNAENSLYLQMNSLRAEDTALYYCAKVGRGGGYFDYWGQGTLVTVSS | 640 nM | 3 of 3 | 2 of 9
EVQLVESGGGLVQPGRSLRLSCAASGFTFDDYAMHWVRQAPGKGLEWVSGISWNDGSIGYATSVKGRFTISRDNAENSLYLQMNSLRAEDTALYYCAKVGRGGGYFCYWGQGTLVTVSS | 140 µM | 1 of 3 | 5 of 9
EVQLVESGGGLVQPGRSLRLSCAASGFTFDDCAMHWVRQAPGKGLEWVSGISWESGSIGYADSVKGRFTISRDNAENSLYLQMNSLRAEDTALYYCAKVGRGGGYGDYWGQGTLVTVSS | 150 µM | 1 of 3 | 0 of 9
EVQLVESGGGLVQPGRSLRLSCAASGFTFDDYAMHWVRQAPGKGLEWVSGILWNSGSWGYADSVKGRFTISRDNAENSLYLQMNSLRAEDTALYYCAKVGRGGGYFFYWGQGTLVTVSS | not detected | 0 of 3 | 1 of 9
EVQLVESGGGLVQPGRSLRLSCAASPFTFDDYAMHWVRQAPGKGLEWVSGISWNSGSIGYADTVKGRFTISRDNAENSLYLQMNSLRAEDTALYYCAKVNRGGGYFDYWGQGTLVTVSS | not detected | 0 of 3 | 0 of 9

2 of these entries, quoted again:

VH,Kd,detected,control signals
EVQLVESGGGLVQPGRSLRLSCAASGKTFDDYAMHWVRQAPGKGLEWVSGISWNSGSWGYADSVKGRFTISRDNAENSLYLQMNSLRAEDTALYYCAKVGRGGGVFDYWGQGTLVTVSS,12 µM,1 of 3,0 of 9
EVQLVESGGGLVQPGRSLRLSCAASGFTGDDYAMHWVRQAPGKGLEWVSGISWNSGSSGYADSVKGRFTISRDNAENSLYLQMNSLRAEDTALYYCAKVGRGIGYFDYWGQGTLVTVSS,not detected,0 of 3,0 of 9

Nonspecific signal, from three strains lacking the peptide, appeared in 21% of pairings of library AAYL51, centred on 34 µM (5% of these signals below 1.8 µM); values are not corrected for it. The control count says in how many pairings with the empty strains this scFv gave a signal.

Reference: Engelhart et al. 2022, doi:10.1038/s41597-022-01779-4. File: FLAb, binding data.